{"sequences": {"note": "The chains behind the UniProt entries cited, without tags or fusion partners.", "UniProt Q99640, whole entry": "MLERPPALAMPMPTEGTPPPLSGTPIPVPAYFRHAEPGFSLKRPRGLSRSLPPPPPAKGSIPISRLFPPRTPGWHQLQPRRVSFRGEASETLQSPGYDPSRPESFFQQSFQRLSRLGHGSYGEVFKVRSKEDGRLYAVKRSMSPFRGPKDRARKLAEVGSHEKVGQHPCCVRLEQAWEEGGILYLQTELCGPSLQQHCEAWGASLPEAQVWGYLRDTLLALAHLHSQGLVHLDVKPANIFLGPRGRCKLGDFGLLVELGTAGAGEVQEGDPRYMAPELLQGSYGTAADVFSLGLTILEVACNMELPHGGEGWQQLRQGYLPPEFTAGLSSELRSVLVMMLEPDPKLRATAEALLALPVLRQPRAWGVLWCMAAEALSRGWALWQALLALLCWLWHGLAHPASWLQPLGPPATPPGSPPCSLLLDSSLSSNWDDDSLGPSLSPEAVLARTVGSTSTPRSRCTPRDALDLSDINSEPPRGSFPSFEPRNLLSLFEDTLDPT"}, "source": "patent US20250197405A1", "about": "“HETEROAROMATIC COMPOUNDS AS PKMYT1 INHIBITORS AND USE THEREOF” (INSILICO MEDICINE IP LIMITED, priority 2022, published 2025)", "target": "PKMYT1 (Homo sapiens (Human), UniProt Q99640)", "test": "PKMYT1 HTRF assay", "assay_type": "binding", "details": "Tracer 178, GST-Tb, compound 10 μM to 0.5 nM"}
{"smiles": "Cc1ccc(O)c(C)c1-n1c(N)c(C(N)=O)c2c(=O)n(C3CC3)c(C)cc21", "values": [{"measurement": "IC50", "value": 3.9, "unit": "nM"}]}
